The record followed here is ChEMBL document CHEMBL1145160, “Neoclerodane diterpenes as a novel scaffold for mu opioid receptor ligands” (J Med Chem, 2005).

The test system of test [1] is Mus musculus. In words: In vivo opioid receptor activity in mouse p-phenylquinone writhing assay. The format is functional.
In test [2] the test system is Mus musculus. The test is described as follows: In vivo opioid receptor activity in mouse tail flick assay. Format: functional.

For the molecule `CN(C(=O)Cc1cccc2occc12)[C@H]1CC[C@@]2(CCCO2)C[C@@H]1N1CCCC1`, the ED50 with Mus musculus [1] is 1.5 µg/kg; with Mus musculus [2], 15 µg/kg.
